# Test results taken from US20060058286A1, “Methods of treating HIV infection” (priority 2004, published 2006).
# Test system: HIV-1 NL4-3
# Experiment: Two-drug combination study with Compound 1 (combination indices)
# Type: cell-based
# Conditions: combination with Compound 1, EC50 ratio 2.5:1 (Compound 1:comparator); 95% CI in parentheses
# Protocol: Virus and cell lines. The T-cell line, MT-2 was obtained through the AIDS Research and Reference Reagent Program, NIAID and was contributed by Dr. D. Richman. The cell line was cultured in RPMI 1640 medium supplemented with 10% fetal bovine serum, 2 mM L-glutamine and sub-cultured twice a week. The NL4-3 strain of HIV-1 was obtained from the AIDS Research and Reference Reagent Program. Both virus stocks were amplified and titered in MT-2 cells using a virus infectivity assay.
# Drug Susceptibility and Cytotoxicity Assays. For drug susceptibility assays, MT-2 cells were infected with HIV-1 NL4-3 at an MOI of 0.001, and seeded into 96-well microtiter plates (2.5×10^5 cells/ml) containing serial dilutions of test compounds. […] On day-five post-infection, 20 μl from each well was harvested and quantitated by a reverse transcriptase (RT) assay or an MTS assay. […] Cell viability was determined by an XTT assay. The CC50 values were calculated by using the exponential form of the median effect equation as mentioned below for calculation of EC50.
# Analysis of Drug Combination Effects. For determination of CI values, drugs were diluted in a fixed ratio and multiple ratios were analyzed. […]
# To assess antiviral effects of different drug combination treatments, combination indices (CIs) were calculated according to Chou and Rideout. […]
smiles,measurement,value
"CC(C)(C)NC(=O)[C@@H]1C[C@@H]2CCCC[C@@H]2CN1C[C@@H](O)[C@H](Cc1ccccc1)NC(=O)[C@H](CC(N)=O)NC(=O)c1ccc2ccccc2n1 [Saquinavir, saquinavir]",Combination Indices at 90% HIV Inhibition (Confidence Interval),"0.82 (0.49, 1.15)"
